Test results taken from patent publication US9163066B2, “Antimicrobial lytic peptides” (priority 2010, dated 2015).

Test system: red blood cells (erythrocytes)
Test: Hemolytic activity of the peptides (hemoglobin release, absorbance at 412 nm)
Assay type: cell-based
Protocol: Hemolysis as defined herein is an in vitro assay where the compounds tendency to lyse red blood cells is determined. Presumably, the compounds that are less hemolytic will be less toxic in vivo. Increasing amounts of compound are added to solutions containing red blood cells and left for a specified time and then lysis is determined spectrophotometrically by measuring hemoglobin release.
A small volume of a suspension of erythrocytes (about 100 million) is kept on ice with a specific amount of lytic peptide. The cells are then placed in a 37° C. water bath for 10 min, vortexed and centrifuged at 1000 g for 2 min. The supernatant was removed and the amount of hemoglobin that was released was determined by the samples' absorbance at 412 nm. Control values without added peptide were subtracted from the absorbance readings.
The numerical difference between the value of the mean of hemolysis and the mean of the activity is a useful way to determine those peptides having the most desired activity.

**Q.** How did the “Mean of Hemolysis” value turn out when Cecropin A was run?
**A.** The value was 1.1 µM.
